# Measurements taken from PMC5672024, “Selective Glucocorticoid Receptor Properties of GSK866 Analogs with Cysteine Reactive Warheads” (Frontiers in Immunology, 2017).
# Test system: recombinant GR-LBD (hGR)
# Assay: Mass spectrometry of tryptic peptides of recombinant GR-LBD after ligand incubation (covalent binding)
# Set-up: species or system human
compound,measurement,value
"C[C@@H]1C[C@H]2[C@@H]3CCC4=CC(=O)C=C[C@]4(C)[C@@]3(F)[C@@H](O)C[C@]2(C)[C@@]1(O)C(=O)COS(C)(=O)=O [Dex-Mes, dexamethasone-21-mesylate, reference compound]",Modifications: GR-LBD cysteine-containing peptide covalently bound,cysteine C622; also recorded: Peptide 615–633 → C622

# Entries after “also recorded” stand apart in the source; their conditions may differ.
